T1: CD19 (Homo sapiens, UniProt P15391)
T1 sequence (P15391 20-556): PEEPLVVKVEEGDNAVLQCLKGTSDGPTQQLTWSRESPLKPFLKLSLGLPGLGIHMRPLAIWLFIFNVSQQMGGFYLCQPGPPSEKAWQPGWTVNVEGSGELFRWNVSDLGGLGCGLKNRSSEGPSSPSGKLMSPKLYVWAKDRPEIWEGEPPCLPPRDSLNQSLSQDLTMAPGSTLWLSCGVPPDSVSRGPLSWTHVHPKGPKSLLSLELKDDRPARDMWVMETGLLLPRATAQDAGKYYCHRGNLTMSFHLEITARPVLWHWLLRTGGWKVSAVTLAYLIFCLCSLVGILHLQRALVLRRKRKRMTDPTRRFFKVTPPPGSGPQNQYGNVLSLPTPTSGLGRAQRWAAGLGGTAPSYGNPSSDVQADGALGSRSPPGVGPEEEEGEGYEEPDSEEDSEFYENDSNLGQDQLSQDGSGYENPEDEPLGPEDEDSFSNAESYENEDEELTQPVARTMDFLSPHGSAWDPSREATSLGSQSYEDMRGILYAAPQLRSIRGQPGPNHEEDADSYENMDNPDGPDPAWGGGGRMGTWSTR

B1: IKK1-S176E-S180E: constitutive active mutant of IKKa/IKK1 (protein)
chain: MERPPGLRPGAGGPWEMRERLGTGGFGNVCLYQHRELDLKIAIKSCRLELSTKNRERWCHEIQIMKKLNHANVVKACDVPEELNILIHDVPLLAMEYCSGGDLRKLLNKPENCCGLKESQILSLLSDIGSGIRYLHENKIIHRDLKPENIVLQDVGGKIIHKIIDLGYAKDVDQGELCTEFVGTLQYLAPELFENKPYTATVDYWSFGTMVFECIAGYRPFLHHLQPFTWHEKIKKKDPKCIFACEEMSGEVRFSSHLPQPNSLCSLIVEPMENWLQLMLNWDPQQRGGPVDLTLKQPRCFVLMDHILNLKIVHILNMTSAKIISFLLPPDESLHSLQSRIERETGINTGSQELLSETGISLDPRKPASQCVLDGVRGCDSYMVYLFDKSKTVYEGPFASRSLSDCVNYIVQDSKIQLPIIQLRKVWAEAVHYVSGLKEDYSRLFQGQRAAMLSLLRYNANLTKMKNTLISASQQLKAKLEFFHKSIQLDLERYSEQMTYGISSEKMLKAWKEMEEKAIHYAEVGVIGYLEDQIMSLHAEIMGLQKSPYGRRQGDLMESLEQRAIDLYKQLKHRPSDHSYSDSTEMVKIIVHTVQSQDRVLKELFGHLSKLLGCKQKIIDLLPKVEVALSNIKEADNTVMFMQGKRQKEIWHLLKIACTQSSARSLVGSSLEGAVTPQTSAWLPPTSAEHDHSLSCVVTPQDGETSAQMIEENLNCLGHLSTIIHEANEEQGNSMMNLDWSWLTE
B2: MTCP-1: accessory module of Table 7 (protein)
chain: MAGEDVGAPPDHLWVHQEGIYRDEYQRTWVAVVEEETSFLRARVQQIQVPLGDAARPSHLLTSQLPLMWQLYPEERYMDNNSRLWQIQHHLMVRGVQELLLKLLPDD
modifications: Synthetic Polynucleotide encoding MTCP-1
B3: SEQ ID NO: 9683: SIR targeting CD20 (protein)
chain: MALPVTALLLPLALLLHAARPQIVLSQSPAILSASPGEKVTMTCRASSSVSYMHWYQQKPGSSPKPWIYATSNLASGVPARFSGSGSGTSYSFTISRVEAEDAATYYCQQWTFNPPTFGGGTRLEIKRTVAALEDLKNVFPPEVAVFEPSEAEISHTQKATLVCLATGFYPDHVELSWWVNGKEVHSGVCTDPQPLKEQPALNDSRYCLSSRLRVSATFWQNPRNHFRCQVQFYGLSENDEWTQDRAKPVTQIVSAEAWGRADCGFTSESYQQGVLSATILYEILLGKATLYAVLVSALVLMAMVKRKDSRGRAKRSGSGATNFSLLKQAGDVEENPGPTSMDWIWRILFLVGAATGAHSFEQAYLQQSGAELVRPGASVKMSCKASGYTFTSYNMHWVKQTPRQGLEWIGGIYPGNGDTSYNQKFKGKATLTVGKSSSTAYMQLSSLTSEDSAVYFCARYDYNYAMDYWGQGTSVTVSSASTRIQNPDPAVYQLRDSKSSDKSVCLFTDFDSQTNVSQSKDSDVYITDKCVLDMRSMDFKSNSAVAWSNKSDFACANAFNNSIIPEDTFFPSPESSCDVKLVEKSFETDTNLNFQNLSVIGFRILLLKVAGFNLLMTLRLWSSRAKRSGSGVKQTLNFDLLKLAGDVESNPGPSRGHMNRHLWKSQLCEMVQPSGGPAADQDVLGEESPLGKPAMLHLPSEQGAPETLQRCLEENQELRDAIRQSNQILRERCEELLHFQASQREEKEFLMCKFQEARKLVERLGLEKLDLKRQKEQALREVEHLKRCQQQMAEDKASVKAQVTSLLGELQESQSRLEAATKECQALEGRARAASEQARQLESEREALQQQHSVQVDQLRMQGQSVEAALRMERQAASEEKRKLAQLQVAYHQLFQEYDNHIKSSRGMQLEDLKQQLQQAEEALVAAQEVIDKLKEEAEQHKIVMETVPVLKAQADIYKADFQAERQAREKLAEKKELLQEQLEQLQREYSKLKASCQESARIEDMRKRHVEVSQAPLPPAPAYLSSPLALPSQRRSPPEEPPDFCCPKCQYQAPDMDTLQIHVMECIE
modifications: Synthetic Polynucleotide encoding a CAR with optional accessory module(s)
notes: SIR targeting CD20

Tests used:
[1] = test system: CD3+ve T cells; assay: Proliferation of T cells after lentiviral expression of NEMO mutants (cell numbers, long term culture); assay type: cell-based, human; details: expression in T cells
Excerpt: Thus, the disclosure provides composition and methods to enhance the survival, proliferation, cytokine secretion, delay exhaustion and senescence and improve the in vivo expansion, persistence and anti-tumor activity of an immune cell, e.g., T cell, e.g., CAR-T or TCR-T or SIR-T cell, and/or an immune cell expressing a non-naturally occurring immune receptor, via selective or preferential (i.e., without AKT activation) activation of the NF-κB pathway in the immune cell.
Buffy coat cells were obtained from healthy de-identified adult donors from the Blood Bank at Children Hospital of Los Angeles and used to isolate peripheral blood mononuclear cells (PBMC) by Ficoll-Hypaque gradient centrifugation. PBMC were either used as such or used to isolate T cells using CD3 magnetic microbeads (Miltenyi Biotech) and following the manufacturer's instructions. PBMC or isolated T cells were re-suspended in XVIVO medium (Lonza) supplanted with 10 ng/ml CD3 antibody, 10 ng/ml CD28 antibody and 100 IU recombinant human-IL2. Cells were cultured at 37° C., in a 5% CO2 humidified incubator. Cells were activated in the above medium for 1 day prior to infection with lentiviral vectors. In general, primary cells (e.g. T cells) were infected in the morning using spin-infection (1800 rpm for 90 minutes at 37° C. with 300 μl of concentrated virus that had been re-suspended in XVIVO medium in the presence of 8 μg/ml of Polybrene® (Sigma, Catalog no. H9268). The media was changed in the evening and the infection was repeated for two more days for a total of 3 infections. After the 3rd infection, the cells were pelleted and resuspended in fresh XVIVO media containing 10 ng/ml CD3 antibody, 10 ng/ml CD28 antibody and 100 IU recombinant human-IL2 and supplemented with respective antibiotics (if indicated) and place in the cell culture flask for selection, unless indicated otherwise. Cells were cultured in the above medium for 10-15 days in case no drug selection was used and for 20-30 days in case drug-selection was used. In cases, where cells were infected with a lentivirus expressing EGFP, they were expanded without drug-selection or flow-sorted to enrich for EGFP-expressing cells. For infection of cancer cell lines, approximately 500,000 cells were infected with 2 ml of the un-concentrated viral supernatant in a total volume of 3 ml with Polybrene® (Sigma, Catalog no. H9268). Then next morning, the cells were pelleted and resuspended in the media with respective antibiotics and place in the cell culture flask for selection.
The mouse NEMO-K270A (SEQ ID NO: 992) is known to activate NF-κB constitutively. […] Cells were cultured at 37° C., in a 5% CO2 humidified incubator, and after 1 day infected with a lentiviral vector (pLENTI-EGFP-Blasticidin) expressing EGFP and lentiviral vectors expressing mouse NEMO-K270A mutants (pLENTI-mNEMO-K270A-FLAG-Blasticidin and pLENTI-mNEMO-K270A-HA-Blasticidin), or mouse NEMO-wt (pLENTI-mNEMO-FLAG-Blasticidin). The sequences of mNEMO-K270A and mNEMO-wt are provided in SEQ ID NOs: 992 and 991, respectively. Approximately 1 day post-infection, cells were selected with blasticidin and cell numbers calculated periodically.

[2] = target: T1, CD19; assay: CAR-T cell in vitro and in vivo assay panel (IL2 production, proliferation, exhaustion, in vivo expansion, anti-tumor activity); set-up: endogenous in cells; host or cells: RAJI cells in vitro; Nalm-6-Luc cells xenografted in NSG mice; details: for cytokine production, proliferation, in vivo expansion and anti-tumor activity of CAR-T cells: compared to CAR-T cells lacking the accessory module
[3] = accessory module replacing hNEMO-K277A

Row | Molecule | ability of T cells to proliferate long term in culture [1] | cytokine production, proliferation, in vivo expansion and anti-tumor activity of CAR-T cells [2, 3] | other results
1 | K13-opt: vFLIP K13 encoded by human codon optimized nucleic acid sequence | extends their ability to proliferate long term in culture without undergoing senescence |  | 
2 | MYD88-L265P: MYD88 mutant that activates NF-κB constitutively, accessory module |  | increased cytokine production, proliferation, in vivo expansion and anti-tumor activity | 
3 | B1 | extends their ability to proliferate long term in culture without undergoing senescence | increased cytokine production, proliferation, in vivo expansion and anti-tumor activity | 
4 | B2 |  |  | proliferative response of CAR-T cells [2, 3]: increased proliferative response
5 | B3 |  |  | in vitro and in vivo activity with co-expressed hNEMO-K277A module ([2]; compared to similar constructs which lack the hNEMO-K277A module): improve the in vitro and in vivo performance

Reference: patent publication US12570711B2, “Platforms for co-stimulation, novel car designs and other enhancements for adoptive cellular therapy” (Angeles Therapeutics, Inc., priority 2017, dated 2026)
